# Laboratory results: ChEMBL document CHEMBL1770096, “Structure-activity relationships of trans-substituted-propenoic acid derivatives on the nicotinic acid receptor HCA2 (GPR109A)” (Bioorg Med Chem Lett, 2011)
# The chains behind the UniProt entries cited, without tags or fusion partners. Where a name states a change or a piece, a line headed by the entry shows the natural chain unless it says otherwise.
# UniProt Q8TDS4: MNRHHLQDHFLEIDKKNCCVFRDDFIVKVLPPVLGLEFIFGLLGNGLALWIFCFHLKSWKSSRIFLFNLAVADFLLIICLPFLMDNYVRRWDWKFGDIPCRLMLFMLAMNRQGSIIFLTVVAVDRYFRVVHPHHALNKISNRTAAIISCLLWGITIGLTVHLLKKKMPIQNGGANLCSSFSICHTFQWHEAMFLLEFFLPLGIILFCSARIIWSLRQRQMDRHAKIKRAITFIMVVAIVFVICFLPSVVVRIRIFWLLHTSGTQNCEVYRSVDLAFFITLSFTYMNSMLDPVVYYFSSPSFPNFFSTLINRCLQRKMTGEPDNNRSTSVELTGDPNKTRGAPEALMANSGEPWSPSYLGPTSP
# Molecular target: Hydroxycarboxylic acid receptor 2 (Homo sapiens) (UniProt Q8TDS4)
# Experiment: Displacement of [3H]nicotinic acid from human GPR109a receptor expressed in human HEK293T cells at 10 uM by liquid scintillation counting
# Format: cell-based
# Conditions: HEK-293T
row,SMILES,Activity
1,O=C(O)/C=C/c1ccc(-c2ccc(Cl)cc2)o1,0%
2,O=C(O)/C=C/C(=O)Oc1ccccc1,10%
3,COc1ccc(COC(=O)/C=C/C(=O)O)cc1,7%
4,O=C(O)C=C(c1ccccc1)c1ccccc1,0%
5,O=C(O)/C=C/C(=O)OC1CCCCC1,17%
6,C/C=C/C(=O)O,6%
7,O=C(O)/C=C/C(=O)OCc1ccc(Cl)cc1,14%
8,Cc1ccc(COC(=O)/C=C/C(=O)O)cc1,30%
9,O=C(O)/C=C/C(=O)OCc1ccc(Br)cc1,21%
10,COc1cccc(COC(=O)/C=C/C(=O)O)c1,4%
11,O=C(O)/C=C/c1ccc2c(c1)OCO2,7%
12,CC(=O)N/C(=C/C(=O)O)c1ccccc1,0%
13,C/C(=C\C(=O)O)c1ccccc1,1%
14,CC(C)=CC(=O)O,0%
15,CC/C=C/C(=O)O,19%
16,O=C(O)/C=C/C(=O)OCCCc1ccccc1,26%
17,O=C(O)/C=C/c1cccc([N+](=O)[O-])c1,0%
18,COc1ccccc1COC(=O)/C=C/C(=O)O,5%

# The remaining lines, values ahead:
row,Activity,SMILES
1,6%,O=C(O)/C=C/c1cc(Br)cs1
2,0%,O=C(O)/C=C/C(=O)OCc1ccccc1Br
3,6%,O=C(O)/C=C/c1sccc1Br
4,17%,O=C(O)/C=C/c1ccc(Cl)cc1
5,2%,Nc1ccc(/C=C/C(=O)O)cc1
6,0%,O=C(O)/C=C/c1cccc(O)c1
7,0%,Cc1ccccc1/C=C/C(=O)O
8,2%,Cc1ccc(/C=C/C(=O)O)cc1
9,7%,Cc1ccc(/C=C/C(=O)O)o1
10,9%,O=C(O)/C=C/c1ccc(Br)o1
11,7%,O=C(O)/C=C/c1ccc[nH]1
12,4%,O=C(O)/C=C/c1ccccc1O
13,0%,Cc1cccc(/C=C/C(=O)O)c1
14,6%,O=C(O)/C=C/c1cccc(Cl)c1
15,0%,COc1ccc(/C=C/C(=O)O)cc1
16,4%,O=C(O)/C=C/c1ccc(O)c(O)c1
17,3%,O=C(O)/C=C/c1cccnc1
18,14%,CCc1ccc(/C=C/C(=O)O)o1
19,0%,CN(C)c1ccc(/C=C/C(=O)O)cc1
